For the assay, the system named is Acinetobacter baumannii. The assay is described as follows: Antimicrobial activity against Acinetobacter baumannii by microdilution method. Type of assay: functional. Background: Dilution methods test growth across graded concentrations, often in twofold steps.

This note sets out measurements from ChEMBL document CHEMBL1275474, “In vitro activity of tigecycline against multidrug-resistant Acinetobacter baumannii and selection of tigecycline-amikacin synergy” (2008).

Broadly, the MIC is the smallest concentration in the dilution series that meets the test's criterion for growth inhibition. For the sequence GENTAMICIN, the lowest concentration to inhibit growth (MIC) was 0.5 µg/mL.
